Values of other authors in publication PMC3162996 (Journal of natural products, 2011).

Settings: Floridian collections of Lyngbya confervoides; ref [6],[7]; cited from earlier work

grassypeptolide A [compound 3]
cytotoxicity (in words): cytotoxic

grassypeptolide B [compound 4]
cytotoxicity (in words): cytotoxic
